Measurements from US9376424B2, “Methods for treating post traumatic stress disorder” (AZEVAN PHARMACEUTICALS, INC., priority 2010, dated 2016).

Chains of the proteins cited; added tags and fusions are not shown.
UniProt P37288, whole entry: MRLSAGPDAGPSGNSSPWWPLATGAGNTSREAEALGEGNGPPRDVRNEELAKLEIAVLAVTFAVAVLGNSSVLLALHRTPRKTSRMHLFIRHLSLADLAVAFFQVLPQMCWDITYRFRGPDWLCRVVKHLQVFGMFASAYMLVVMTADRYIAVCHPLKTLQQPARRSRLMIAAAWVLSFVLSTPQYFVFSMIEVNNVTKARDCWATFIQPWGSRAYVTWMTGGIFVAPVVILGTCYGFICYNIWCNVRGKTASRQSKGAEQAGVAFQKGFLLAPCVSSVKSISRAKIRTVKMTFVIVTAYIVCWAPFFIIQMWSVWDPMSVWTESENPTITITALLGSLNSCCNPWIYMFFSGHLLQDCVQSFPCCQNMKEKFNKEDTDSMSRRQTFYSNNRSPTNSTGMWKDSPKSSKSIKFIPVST

Key:
[1] = test system: resident male rats; assay: Resident-Intruder Model of Stress and Aggression in Rats (neuroimaging); details: male residents; tested form: HCl
[2] = molecular target: human V1a receptor (Homo sapiens, UniProt P37288); assay: Human vasopressin V1a receptor binding assay (3H-AVP competition, hV1a cell line); details: CHO cells expressing human V1a, 1 nM 3H-AVP; for IC50: read-out: V1a Binding Affinity IC50; for Ki: read-out: V1a Ki

| IC50 [2] [nM] | Ki [2] [nM] | Compound | sexual behavior toward receptive females in home cage [1] |
| --- | --- | --- | --- |
| – | – | CN(Cc1cccc(C(F)(F)F)c1)C(=O)[C@@H](CC(=O)N1CCC(N2CCCCC2)CC1)N1C(=O)[C@@H](N2C(=O)OC[C@@H]2c2ccccc2)[C@H]1/C=C/c1ccccc1 | normal sexual behavior |
| 11 | 6.71 | O=C(NCc1cccc(C(F)(F)F)c1)[C@H](CCC(=O)N1CCN(N2CCCC2)CC1)N1C(=O)[C@@H](N2C(=O)OC[C@@H]2c2ccccc2)[C@H]1/C(Cl)=C/c1ccccc1 | – |
| 9 | 5.5 | O=C(N[C@@H]1CCCc2ccccc21)[C@H](CCC(=O)N1CCN(C2CCCCC2)CC1)N1C(=O)[C@@H](N2C(=O)OC[C@@H]2c2ccccc2)[C@H]1CCc1ccccc1 | – |
